Paper PMC12376758, “Restoration of CB1 receptor function in hippocampal GABAergic neurons rescues memory deficits in Huntington’s disease models” (Translational Neurodegeneration, 2025)
Like-named read-outs stand apart in the source and are kept apart here.

The chains behind the UniProt entries cited, without tags or fusion partners.
UniProt P47746, whole entry: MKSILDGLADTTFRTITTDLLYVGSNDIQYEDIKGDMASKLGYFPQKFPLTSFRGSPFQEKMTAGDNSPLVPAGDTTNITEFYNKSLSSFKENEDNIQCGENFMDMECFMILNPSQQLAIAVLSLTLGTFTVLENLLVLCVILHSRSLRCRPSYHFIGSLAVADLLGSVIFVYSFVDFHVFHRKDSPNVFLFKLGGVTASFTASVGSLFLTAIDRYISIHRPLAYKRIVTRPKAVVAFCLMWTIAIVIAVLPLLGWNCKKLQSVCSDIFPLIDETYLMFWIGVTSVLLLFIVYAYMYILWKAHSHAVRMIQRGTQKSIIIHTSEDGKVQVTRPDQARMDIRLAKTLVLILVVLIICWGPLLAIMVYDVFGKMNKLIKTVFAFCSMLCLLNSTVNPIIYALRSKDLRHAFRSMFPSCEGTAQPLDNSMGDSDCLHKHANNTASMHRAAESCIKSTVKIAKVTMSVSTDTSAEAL

Molecular target: T1, CB1R (Mus musculus, UniProt P47746)
T1 construct: Hippocampal membrane homogenates from WT vehicle (n = 14), WT WIN (n = 10), R6/1 vehicle (n = 10) and R6/1 WIN (n = 9) mice; from tissue; host or cells: mouse hippocampal membrane homogenates / synaptosomes (WT and R6/1, vehicle or WIN treated)
Assay type: binding
Settings: for Bmax: [3H]SR141716A 2 nmol/L

**Q.** How did the Bmax (hippocampal membrane homogenates of R6/1 mice treated with WIN 1 mg/kg) turn out when `Cc1c(C(=O)c2cccc3ccccc23)c2cccc3c2n1[C@H](CN1CCOCC1)CO3` [WIN, WIN 55212–2] was run?
**A.** 830.6 ± 46.32^$$ fmol/mg prot

**Q.** And the Bmax (hippocampal membrane homogenates of WT mice treated with WIN 1 mg/kg)?
**A.** 828.0 ± 39.64 fmol/mg prot

**Q.** And the “Total binding of [3H]SR141716A (peak of the inhibition curve)” value (hippocampal membranes of R6/1 mice, WIN vs vehicle)?
**A.** significantly increased

**Q.** What about the “binding profile of inhibition curve (one or two binding sites)” value (hippocampal membranes of WIN-treated R6/1 mice, [3H]SR141716A displaced by CP55940) of the same compound?
**A.** both binding sites
